Two substances from patent publication US7994255B2, “Polyorganiosiloxane-containing graft copolymer, resin compositions containing the same and process for produciton of polyorganosiloxane emulsions” (priority 2003, dated 2011) can be followed below.

The data set can be described thus: Solubility to water of radical polymerization initiators.

For t-butylperoxyisopropyl monocarbonate, the “Solubility to water at 20° C. (g/100 g of water)” value is listed as 0.02 g/100 g of water.

With t-hexylperoxyisopropyl monocarbonate, the “Solubility to water at 20° C. (g/100 g of water)” value is given as 0.01 g/100 g of water.
